Our source for the Emax and Activity values is ChEMBL document CHEMBL5523728, “Fragment-Based Discovery of a Series of Allosteric-Binding Site Modulators of β-Glucocerebrosidase” (J Med Chem, 2024).

Each structure is given as a SMILES string. Calls of active or inactive are those of the source. No cut-off for these calls is given here.

The target of assay [1] is T1, Lysosomal acid glucosylceramidase (Homo sapiens) (UniProt P04062).
T1 sequence (whole entry): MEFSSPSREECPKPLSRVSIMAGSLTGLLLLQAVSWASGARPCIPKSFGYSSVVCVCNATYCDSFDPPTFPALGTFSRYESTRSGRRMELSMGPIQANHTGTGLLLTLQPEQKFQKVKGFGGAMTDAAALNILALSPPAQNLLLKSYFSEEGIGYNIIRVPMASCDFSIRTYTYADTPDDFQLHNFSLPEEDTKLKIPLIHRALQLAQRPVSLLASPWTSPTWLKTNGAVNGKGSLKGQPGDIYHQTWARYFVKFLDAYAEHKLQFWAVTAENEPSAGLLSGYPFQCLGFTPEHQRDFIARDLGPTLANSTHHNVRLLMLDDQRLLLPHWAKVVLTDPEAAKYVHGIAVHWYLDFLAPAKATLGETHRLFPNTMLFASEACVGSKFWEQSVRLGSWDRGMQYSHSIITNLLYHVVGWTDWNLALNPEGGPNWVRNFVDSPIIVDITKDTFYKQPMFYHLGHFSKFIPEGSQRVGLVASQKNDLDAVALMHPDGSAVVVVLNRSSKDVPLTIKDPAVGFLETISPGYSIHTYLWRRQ
The assay is described as follows: Positive allosteric modulation of GCase in human Fibroblast cells using GBA1-FQ2 as substrate at 50 uM preincubated for 24 hrs followed by substrate addition and measured after 3 hrs by Hoechst 33342 staining based imaging analysis relative to control. In kind it is cell-based. As to conditions: filed as positive allosteric modulator, time 27.0 hrs.

Assay [2] has as its target T1, Lysosomal acid glucosylceramidase (Homo sapiens). The note with it: Sf9, filed as positive allosteric modulator, dose 5-50 µM, time 1.0 hrs.

A word on the Emax: it is the size of the effect at its maximum, as opposed to the concentration needed. Take `CCCOc1cc(F)cc(S(=O)(=O)N(C)C[C@@H](N)c2cccc(N(C)C)c2)c1`: the Emax in assay [1] was 166%. As for `C=C(C)c1cccc([C@@H](N)CN(C)S(=O)(=O)c2cc(F)cc(F)c2)c1`, in assay [2], the result was Active.
